Results: US8765808B2, “Treatment or prevention of cancer and precancerous disorders” (CHS Pharma, Inc., priority 2005, dated 2014)
Read-outs that look alike come from different tables or passages of the source.

Key:
[1] = system: SCC-25 squamous cell skin cancer cell line; test: MTS cell viability after pretreatment and oxidative stress, SCC skin cancer cells; type: cell-based, human; details: SCC-25, TBHP (FIG. 14)
Description: SCC-25 is a human squamous cell carcinoma cell line developed by J G Rheinwald [Rheinwald, 1981]. […] The cells were maintained in minimum essential medium (Eagle) supplemented with 2 mM L-glutamine, Earle's BSS containing 1.5 g/L sodium bicarbonate, 0.1 mM non-essential amino acids, 1.0 mM sodium pyruvate and 10% fetal bovine serum.
The experimental approach was to pretreat SCC cells with sulindac for 24 hr prior to exposure to TBHP for 2 hr. Sulindac (Sigma; S-8139) was freshly prepared as a 1M stock solution in 1M Tris.Cl, pH 8.0. SCC cells were suspended in culture medium containing 10% fetal bovine serum at a cell density of 6×10^5 cells/ml. Cell suspensions containing 500 μM sulindac or no sulindac (Control) were plated in 96 well microtiter plates with a total of 6×10^4 cells per well. The plates were incubated for 24 hr at 37° C. in a 5% CO2 incubator. The culture medium was then removed and the cells washed once with fresh culture medium without serum. After removal of the wash solution, fresh culture medium without serum that contained the indicated final concentration of TBHP was added to the cells for 2 hrs. Serum was omitted from the medium during the two-hour exposure to TBHP since TBHP may be rapidly depleted in the presence of serum.

[2] = system: Normal HEK skin cells (human neonatal epidermal keratinocytes); test: Intracellular ROS by indicator dye fluorescence, normal HEK skin cells; details: Table 4; Sul 500 uM alone
SCC skin cancer cells = test: Intracellular ROS by indicator dye fluorescence, SCC skin cancer cells
[3] = system: neonatal rat cardiac myocytes; details: Normal Cardiomyocyte, 200 μM epimer, 4 hours
Description: FIG. 23 is a graph showing the metabolic conversion of the R & S epimers of sulindac to the sulfide form in cardiac myocytes. The amount of sulindac sulfide formed by 10^6 cells incubated with 400 μM sulindac, R, S or RS mixture is measured as a function of time of incubation. […] The absorbance was measured at 330 nm.
To inhibit fibroblast growth, 0.1 mM bromodeoxyuridine was included in the medium for the first 3-5 days after plating. Cell cultures are incubated with sulindac or its individual epimers for specified times.
After the incubations, the cells were pelleted by low speed centrifugation and lysed by the addition of 200 μl of 100% acetonitrile, followed by vigorous vortexing. The lysate was centrifuged for 15 minutes at 14,000×g to pellet cell debris. 50 μl of the supernatant was transferred to an HPLC autosampler microvial. The separation of metabolites is carried out on a 4.6×75 mm C18 reverse-phase column. […] The metabolites are detected at a wavelength of 330 nm.
The cells are incubated with 200 μM R- or S-Sulindac epimer for 4 hours in a defined, serum-free medium (EX-CELL^SM). After incubation, the cells are collected, rinsed and lysed with acetonitrile. The cytosolic contents are separated on a C-18 column.

For CC1=C(CC(=O)O)c2cc(F)ccc2/C1=C\c1ccc([S+](C)[O-])cc1 (racemic) [sulindac, Sulindac], the “potency in enhancing killing relative to sulfone metabolite” value [1] was “more potent than the sulfone metabolite”, the “fold increase compared to untreated control” value (“fold increase” below) [2] was 0 fold and the “fold increase” value (SCC skin cancer cells; Table 2, Sul 0.5 mM 24 hours and/or TBHP 100 μM 2 hours) was 2 fold. For the same compound, the “fold increase” value (SCC skin cancer cells; Table 3, Sul 500 μM 24 hours and/or TBHP 100 μM 2 hours) was 2 fold and the “synergistic enhancement of ROS levels relative to additive value” (SCC skin cancer cells; sulindac 500 uM in combination with TBHP 100 uM) was 2 × the additive value of sulindac or TBHP alone.
In the case of CC1=C(CC(=O)O)c2cc(F)ccc2/C1=C\c1ccc([S+](C)[O-])cc1 (stereo not shown) [R-epimer, R-sulindac sulfoxide], the “R/S (%)” value [3] is reported as 9% and the “R/S (%)” value ([3]; listed as R epimer) is reported as < 10%.
